Results reported in ChEMBL document CHEMBL3886235, “Epoxyeicosatrienoic acid analogs and methods of making and using the same” (2015).

The chains behind the UniProt entries cited, without tags or fusion partners.
UniProt P34913, whole entry: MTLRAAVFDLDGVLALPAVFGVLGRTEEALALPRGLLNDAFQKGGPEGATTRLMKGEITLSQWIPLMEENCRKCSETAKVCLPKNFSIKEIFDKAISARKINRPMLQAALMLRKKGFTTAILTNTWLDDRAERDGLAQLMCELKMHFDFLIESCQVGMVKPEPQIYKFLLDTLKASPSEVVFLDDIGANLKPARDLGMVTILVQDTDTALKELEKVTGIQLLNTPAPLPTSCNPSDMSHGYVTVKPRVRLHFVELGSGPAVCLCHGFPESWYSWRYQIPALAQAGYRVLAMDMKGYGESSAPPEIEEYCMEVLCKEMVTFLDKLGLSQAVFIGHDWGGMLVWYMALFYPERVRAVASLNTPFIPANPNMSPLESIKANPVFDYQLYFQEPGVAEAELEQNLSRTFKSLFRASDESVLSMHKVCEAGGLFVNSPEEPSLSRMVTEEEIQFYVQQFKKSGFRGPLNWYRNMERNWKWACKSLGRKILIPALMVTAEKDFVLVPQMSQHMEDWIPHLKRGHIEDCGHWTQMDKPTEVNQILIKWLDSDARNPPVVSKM

Target: Bifunctional epoxide hydrolase 2 (Homo sapiens, UniProt P34913)
Assay: Inhibition Assay: Compounds were tested for their ability to inhibit recombinant soluble epoxide hydrolase (sEH) protein. The assay utilizes (3-Phhenyl-oxiranyl)-acetic acid cyano-(6-methoxy-naphthalen-2-yl)-methyl ester (PHOME), a sensitive substrate for sEH that can be used to monitor the activity of both human and murine enzymes. Hydrolysis of the substrate epoxide yields a highly fluorescent product, 6-methoxy-2-Naphthaldehyde, which can be monitored at excitation and emission wavelengths of 330 and 465 nm, respectively. See Wolf et al., Anal Biochem 355:71-80, 2006 PMID: 16729954. Human recombinant sEH was incubated with substrate and compounds ranging in concentration from 0.1 to 1000 nM.

IC50: 392 nM
Structure (SMILES): CCCCCNC(=O)NCCCC/C=C\CCCCCCC(=O)N[C@H](CC(=O)O)C(=O)O
